What was measured:
LHCG receptor [1] = biological target: T1, LHCG receptor (Homo sapiens, UniProt P22888); assay: Reporter Gene Assay for r-hLH and r-hCG potency, HEK 293-T LHCGR Luciferase; assay type: cell-based; settings: for RGA response to hormone stimulation (dose-response): 40000 cell/well, 4-hour incubation, start 200 ng/ml r-hLH or 250 ng/ml r-hCG, 1:10 dilution; for Intercept confidence interval (linearity) / Slope confidence interval (linearity): log measured vs log theoretical relative potency, 60%-144%; for Intercept confidence interval (linearity): acceptance: encompass 0; for Slope confidence interval (linearity): acceptance: encompass 1
T1 construct: Promega (Luc2P/CRE CS188015 reporter vector); host or cells: HEK 293-T LHCGR Luciferase
Text: Reporter Gene Assay: method development. A Reporter Gene Assay was set-up for r-hLH and r-hCG potency assessment using HEK 293-T LHCGR Luciferase cell line. The developed method was able to reproduce a portion of the r-hLH and r-hCG mechanism of action: the first steps of the metabolic cascade produced by the receptor binding with the hormone. The assay principle foreseen the cells plating at the same concentration (40000 cell/well) in each well of a 96 well plate and their stimulation with a starting dose of 200 ng/ml of r-hLH or 250 ng/ml of r-hCG, applying a 1:10 dilution step. After 4-hour incubation, the commercial luminescence substrate was added into each well and, after shaking, results were acquired using a plate reader. All the produced data were analyzed using GraphPad Prism software, interpolating the values of RLUs obtained in each well with the log-transformed nanograms/mL of hormone used at each dose.
Two preliminary method linearity were carried out to assess methods performance using r-hLH and r-hCG samples. the feasibility of method linearity was evaluated testing in triplicate different theoretical relative potency levels: 60%, 77%, 100%, 120%, 144%. These different potency levels were calculated starting from the concentration of 200 ng/ml of r-hLH and 250 ng/ml of r-hCG. The starting concentration for both samples was considered as standard. For each sample it was calculated the relative potency (RP %) result.
Linearity results were statistically analyzed using JMP software. JMP analysis included the generation of a graph reporting on the x axes the log Theoretical Relative Potency of tested samples (60%-77%-100%-120%-144%), and on the y axes the log Measured Relative Potency of the tested samples. A common approach to evaluate the goodness of fit of the obtained regression line is to evaluate different parameters as R2, the intercept confidence interval and the slope confidence interval. Thanks to the gained experience following multiple method validations in the laboratory, it was possible to define approximated acceptance criteria for all the parameters (Table 2).

Protein sequences, listed by entry. Tags and fused reporters are not part of them. Residues count along the entry.
UniProt P22888, 27-699: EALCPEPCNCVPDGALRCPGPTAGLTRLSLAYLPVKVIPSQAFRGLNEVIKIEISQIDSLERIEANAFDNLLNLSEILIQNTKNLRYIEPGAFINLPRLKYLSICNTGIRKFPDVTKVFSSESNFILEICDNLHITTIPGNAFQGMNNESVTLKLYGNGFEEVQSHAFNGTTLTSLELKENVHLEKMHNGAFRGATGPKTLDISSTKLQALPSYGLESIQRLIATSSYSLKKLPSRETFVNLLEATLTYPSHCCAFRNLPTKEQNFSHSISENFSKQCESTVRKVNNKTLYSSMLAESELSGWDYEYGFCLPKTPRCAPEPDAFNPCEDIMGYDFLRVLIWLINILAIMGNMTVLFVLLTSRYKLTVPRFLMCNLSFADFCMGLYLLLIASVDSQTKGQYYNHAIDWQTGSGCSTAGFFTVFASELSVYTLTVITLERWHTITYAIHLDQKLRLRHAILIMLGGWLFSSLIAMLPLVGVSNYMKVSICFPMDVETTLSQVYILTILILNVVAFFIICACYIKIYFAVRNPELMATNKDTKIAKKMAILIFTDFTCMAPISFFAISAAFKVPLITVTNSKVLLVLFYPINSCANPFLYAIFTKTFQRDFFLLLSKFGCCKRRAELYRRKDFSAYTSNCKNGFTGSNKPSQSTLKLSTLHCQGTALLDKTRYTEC

LHCG receptor [2] = biological target: T1, LHCG receptor; assay: cAMP quantification by FRET (HTRF) kit after stimulation of HEK 293-T LHCGR cells; assay type: cell-based; settings: 30 minutes incubation
Text: (§1) First transfection efficiency evaluation. In order to evaluate transfection efficiency, transfected cells were stimulated with r-hLH and cAMP production was quantified using a commercial kit based on Fluorescence Resonance Energy Transfer (FRET). The FRET commercial kit used to quantify cAMP was provided by Cisbio. The kit includes a cAMP coupled with d2 (acceptor) and an antibody anti-cAMP conjugated with a cryptate (donor, Europium). The FRET is detected by a plate reader equipped with the Homogeneous Time Resolve Fluorescence (HTRF) detector technology. All the experiments were performed according to the datasheet provided by the kit supplier.
(§2) For data interpretation, the ratio between acceptor and donor emission signals must be calculated for each individual well using the following formula: […]
(§3) All the raw data (Ratio) produced with the FRET kit, were analyzed and graphed with the statistical software GraphPad Prism. The statistical analysis performed was the Ratio Log transformation and creation of the 4PL curve.
(§4) Cells were plated in a 96 well plate at the same concentration and stimulated with different amount of r-hLH, creating a dose-response curve. As negative control, HEK 293-T without transfection were also stimulated. […] The plate was again incubated under shaking conditions for 60 minutes and finally the results were acquired at the plate reader. […]

LHCG receptor [3] = biological target: T1, LHCG receptor; assay: First transfection stability: cAMP FRET after r-hLH stimulation of HEK 293T LHCGR Luciferase; assay type: cell-based; settings: passage 17 to passage 41; three banks; 4-parameter curve
Text: First transfection stability. The LHCG receptor transfection stability was indirectly evaluated through the quantification of the cAMP produced after r-hLH interaction with its receptor. HEK 293T LHCGR Luciferase, were stimulated with scalar doses of r-hLH in a 96-well plate and the quantity of cAMP present in each well was quantified using the FRET commercial kit. A 4-parameter dose-response curve was generated for each test using GraphPad Prism (v.8) software. The EC50 was chosen as the parameter to be monitored over time.

[4] = test system: HEK 293-T without transfection; assay: cAMP quantification by FRET (HTRF) kit in non-transfected HEK 293-T (negative control); assay type: cell-based, human; settings: 30 minutes incubation
Text: as §1, §2, §3, §4

r-hCG: recombinant human Chorionic Gonadotropin, such as Choriogonadotropin alfa Drug Product
RGA response to hormone stimulation (dose-response) (LHCG receptor [1]): well described dose-response curves
Intercept confidence interval (linearity) (LHCG receptor [1]): −0.90-0.13
Slope confidence interval (linearity) (LHCG receptor [1]): 0.97-1.19

r-hFSH: an analogue hormone of r-hLH, used to verify response specificity
cAMP response to stimulation (dose-response) (LHCG receptor [2]): absent

r-hLH: recombinant human Luteinizing Hormone, such as Lutropin Alpha Drug Product
cAMP response to stimulation (dose-response) (LHCG receptor [2]): well described dose-response curve
RGA response to hormone stimulation (dose-response) (LHCG receptor [1]): well described dose-response curves
Intercept confidence interval (linearity) (LHCG receptor [1]): −0.74-0.32
Slope confidence interval (linearity) (LHCG receptor [1]): 0.93-1.16
EC50 monitored over time (LHCG receptor [3]): remained stable
cAMP response to stimulation (dose-response) [4]: not able to produce a dose-related response

Source: US20260234566A1, “CELL LINES FOR EXPRESSION OF LHCG RECEPTOR” (Ares Trading S.A., priority 2023, published 2026)
